Results taken from patent publication US9517229B2, “Treatment of breast cancer” (MEDIVATION PROSTATE THERAPEUTICS, INC., priority 2011, dated 2016).

System: SDF-1, progesterone receptor and androgen receptor gene expression
Assay: E2-mediated upregulation of E2/ER regulated gene expression
Type: cell-based
Details: FIG. 4
[1] = presence or absence of estradiol (E2)

CNC(=O)c1ccc(N2C(=S)N(c3ccc(C#N)c(C(F)(F)F)c3)C(=O)C2(C)C)cc1F [RD162′, enzalutamide]
blocks E2-mediated upregulation: E2-mediated upregulation of androgen receptor | E2-mediated upregulation of SDF-1 gene expression [1] | E2-mediated upregulation of progesterone receptor gene expression [1]
